Assay results taken from patent US5440016A, “Peptides of the formula (KFmoc) ZZZ and their uses” (priority 1993, dated 1995).

Tested on: Human red blood cells (RBCs)
Assay: Hemolytic activity
Type: cell-based
Conditions: Tables 18-21
Method: Each assay was carried out in 96-well culture tissue plates. Four wells per plate contain 125 μl of a non-peptide positive control (1% Triton in de-ionized water), and four wells per plate contain 125 μl of a control blank, phosphate buffered saline (PBS). The hemolytic peptide melittin was used as comparative control. The controls served to detect possible contamination and to calculate the percent hemolysis of each peptide. Human red blood cells (RBCs) were washed with PBS and centrifuged to separate them from the serum. The cells were then resuspended in PBS to a final suspension of 0.5% RBC. 125 μl of this suspension was added to the peptides and controls solution. The release of hemoglobin resulting from the cell lysis was determined by measuring the OD at 414 nm of 100 μl of the supernatant.

Substance	HD50 (concentration necessary to lyse 50% of the cells)
(KFmoc)ci(Thiopro)-NH2	58 µg/mL
(KFmoc)ci(Cys[ACM])-NH2	84 µg/mL
